scFv variants of Ab-91 (heavy chain) against a SARS-CoV-2 spike peptide

All variants were tested on one target, the spike HR2 peptide PDVDLGDISGINAS (SARS-CoV-2).

Parent: Ab-91, a human scFv built as VL, a (GGGGS)3 linker, VH. Only the CDRs of the heavy chain vary.
VL: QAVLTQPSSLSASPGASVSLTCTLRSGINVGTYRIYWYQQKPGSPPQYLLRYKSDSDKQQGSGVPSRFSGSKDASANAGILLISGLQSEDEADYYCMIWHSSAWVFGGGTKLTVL
VH: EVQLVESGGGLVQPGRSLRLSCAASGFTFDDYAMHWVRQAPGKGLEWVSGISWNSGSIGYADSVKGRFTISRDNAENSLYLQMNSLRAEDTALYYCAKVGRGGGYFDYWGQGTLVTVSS

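Library AAYL51 holds single substitutions and randomly drawn double and triple substitutions in the CDRs. The assay is AlphaSeq: two haploid yeast populations carry antibody and antigen on their surface. After mating in shaken culture at 30 °C for 16 h, diploids were selected and their barcode pairs sequenced. Each replicate has its own calibration line, from reference interactions of the BCL2 family. Each pool was mated in three replicate cultures.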

Positions count from residue 1 of the parent VH; Y32G puts G in place of Y. All variants listed here change K65 of the VH, counted from its first residue. Kd is apparent (estimated from mating counts) and averaged on the log scale over replicates with a signal. Smaller is tighter. An entry "nd" has no value in the source: the pair was not observed among the diploids in any replicate. This suggests poor binding but is not conclusive.

* Y32G S55M K65Y = 21 µM (1 of 3 replicates)
* D30P K65H G102T = 6.2 nM (3 of 3 replicates)
* K65G R101M = 130 nM (3 of 3 replicates)
* A61W D62N K65M = 55 µM (3 of 3 replicates)
* G26K K65E = 1.9 µM (3 of 3 replicates)
* H35P I51S K65P = 94 µM (1 of 3 replicates)
* D30Y K65L Y108P = 4.5 µM (1 of 3 replicates)
* T28R G59H K65A = 27 µM (1 of 3 replicates)
* D30Q S63R K65Y = 6.3 nM (3 of 3 replicates)
* I51E K65T D107S = 4.1 µM (1 of 3 replicates)
* S52R K65R G102S = 50 µM (2 of 3 replicates)
* K65W G102C Y105T = nd (0 of 3 replicates)
* G56C G59Q K65F = nd (0 of 3 replicates)
* D62G S63D K65S = 400 nM (3 of 3 replicates)
* K65A F106G = 91 nM (2 of 3 replicates)
* H35Y K65D = nd (0 of 3 replicates)
* I58P K65W G102T = nd (0 of 3 replicates)
* D30F K65P R101A = 140 µM (3 of 3 replicates)
* G50W S55E K65W = 140 µM (1 of 3 replicates)
* D62T K65W Y105N = 2.2 µM (2 of 3 replicates)
* M34K S52W K65Q = 220 µM (1 of 3 replicates)
* K65Q G103Y Y105E = nd (0 of 3 replicates)
* V64W K65Q G103W = 430 µM (2 of 3 replicates)
* V64T K65M = 1.4 µM (3 of 3 replicates)
* D30V K65M Y108A = 6.3 nM (3 of 3 replicates)
* A33E S55D K65Q = 28 µM (2 of 3 replicates)
* F29Q K65V G100H = nd (0 of 3 replicates)
* Y60M K65V = 500 nM (3 of 3 replicates)
* T28M S63K K65C = 170 nM (3 of 3 replicates)
* Y60A K65C = 3.1 µM (2 of 3 replicates)
* S55P K65D G104W = nd (0 of 3 replicates)
* K65Y R101I F106V = 42 µM (2 of 3 replicates)
* K65E = 6.1 nM (3 of 3 replicates)
* H35W G50M K65L = nd (0 of 3 replicates)
* S57H K65C = 440 nM (3 of 3 replicates)
* T28R G56T K65F = 210 nM (3 of 3 replicates)
* Y60N D62F K65I = nd (0 of 3 replicates)

5 of these entries, quoted again:

{"changes": "M34K S52W K65Q", "Kd (apparent)": "220 µM", "detected": "1/3"}
{"changes": "D30P K65H G102T", "Kd (apparent)": "6.2 nM", "detected": "3/3"}
{"changes": "K65Q G103Y Y105E", "Kd (apparent)": "nd", "detected": "0/3"}
{"changes": "S57H K65C", "Kd (apparent)": "440 nM", "detected": "3/3"}
{"changes": "G50W S55E K65W", "Kd (apparent)": "140 µM", "detected": "1/3"}

Three control strains display no target. For library AAYL51, 21% of the pairings with them gave a signal, with a median of 34 µM and one signal in twenty below 1.8 µM, so weak values seen in few replicates may be background. For reference, the parent read 72 nM as the reference entry and 7.5 nM as a member of this library.

Source: Engelhart et al. 2022 (doi:10.1038/s41597-022-01779-4), MIT Lincoln Laboratory and A-Alpha Bio; data file from the FLAb repository.